Results taken from PubChem BioAssay AID485281 (National Center for Advancing Translational Sciences (NCATS), 2010).
The entries are a selection whose mix differs from that of the whole data set. Results filed as inconclusive are left out. Active and inactive are the calls of the source. The call rests on the fitted dose curve; in most records, active means well fitted inhibition curve with a large enough effect; inconclusive means small, poorly fitted or top-dose-only effect; inactive means no such curve, though single readings can be large or run the other way.

Sequences of proteins named here, by UniProt entry; tags and fusion partners are left off. Residues count along the entry.
UniProt P02791, 2-175 limits assumed: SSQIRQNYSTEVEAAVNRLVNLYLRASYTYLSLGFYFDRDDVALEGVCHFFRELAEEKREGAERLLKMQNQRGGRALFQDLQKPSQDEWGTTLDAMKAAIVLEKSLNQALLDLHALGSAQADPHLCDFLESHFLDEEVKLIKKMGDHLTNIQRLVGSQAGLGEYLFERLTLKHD

Molecular target: Ferritin light chain (Equus caballus) (UniProt P02791)
Assay: qHTS Assay for Identification of Novel General Anesthetics; further: nearly all actives have a fitted effect of over 20% in size
Details: apoferritin/1-aminoanthracene competitive binding, fluorescence; at 77.5 µM (top of the series)
On the % scale 0 is the no-effect control and ±100 the full control effect.

Q: Which activity change, negative = displacement does the source give for `CN(CCCl)CCCl` here?
A: inactive: -14.1%
